The entries are a selection whose mix differs from that of the whole data set. Active and inactive are the calls of the source. The call rests on the fitted dose curve; in most records, active means well fitted inhibition curve with a large enough effect; inconclusive means small, poorly fitted or top-dose-only effect; inactive means flat fitted curve, though single readings scatter.
On the % scale 0 is the no-effect control and ±100 the full control effect.

In the experiment the test system is Chaperonin Mm-Cpn (Methanococcus maripaludis). In words: Inhibitors of TCP-1 ring complex (TRiC) of Methanococcus maripaludis (MmCpn): qHTS. Further: nearly all actives have a fitted effect of over 80% in size. The settings on record: purified Mm-Cpn ATPase, ADP Transcreener TR-FRET; at 76.9 µM (top of the series). The text has this:
The eukaryotic chaperonin TRiC (for TCP-1 ring complex) is an essential and conserved chaperone required for the folding and activation of 10-15% of the proteins encoded by the human genome. […] The TRiC complex consist of two stacked 7-9 membered rings, each containing a central cavity. Substrates are folded within the cavity in an ATP-dependent manner. TRiC is a complex of eight different, essential proteins. As each of the genes encoding the eight subunits is essential for cell viability and no protocol has been developed to over-express this enzyme to high levels. That is why several groups studying the TRiC chaperonin have turned to the archaeal homolog of TRiC, Methanococcus maripaludis (Mm-CPN), and have used this enzyme as a model system for the study of the type II chaperonin family. Small molecule inhibitors of the Mm-CPN enzyme would be extremely useful to study the mechanism of chaperonin activity. Importantly, TRiC and Mm-CPN both require ATP hydrolysis for function. Furthermore, the ATP binding sites are highly conserved among these type II chaperonins. This provides us with an easy, well tested and straightforward assay to identify inhibitors of chaperonin activity. The Mm-CPN assay was developed in 1536-well plate format using the HTRF Transcreener ADP assay kit (Cisbio, Bedford, MA). This assay applied the time resolved fluorescence resonance energy transfer (TR-FRET) principle. ATP in the presence of Mm-CPN is converted to ADP + Pi. An antibody labeled with Eu3+-Cryptate specific and bound to ADP labeled with […] (d2) competes with the unlabeled ADP generated by Mm-CPN. The resulting TR-FRET signal is inversely proportional to the concentration of ADP in the sample. In this assay a reduction in TR-FRET signal is observed with ATP turnover. NIH Chemical Genomics Center [NCGC] NIH Molecular Libraries Probe Centers Network [MLPCN] MLPCN Grant: DA030554-01A1 Assay Submitter (PI): Judith Frydman, Stanford University
Purified Mm-CPN was supplied by the laboratory of Dr. Judith Frydman. Protein samples were stored at -80C as single use aliquots. Protein was thawed in ambient temperature water bath and placed on ice once thawed. Buffer was prepared fresh day of screen. The buffer composition below was used to prepare the working solution of the Mm-CPN protein and ATP substrate. The buffer is comprised of 30 mM TRIS pH 7.4, 100mM KCl, 5mM MgCl2, and 1mM DTT. A final concentration of 25nM Mm-CPN and 10uM ATP per well were used in the screen. Instructions according to the manufacturer were followed for the ADP Transcreener kit. Used 1536 well Greiner white, medium binding (MB), solid bottom plates. Plates were read on the PerkinElmer EnVision plate reader using Excitation = 320 nm and Emission = […], 665 nm. Protocol- 1.Dispense 1.5ul per well of working [Mm-CPN] = 50nM (or 75 ng / well) 2.Spin plate at 1000 rpm for 30 seconds 3.23nl of compound transferred per well 4.Incubate at 37degC for 10 minutes 5.Dispense 1.5ul per well of working [ATP] = 20uM 6.Incubate at 37degC for 30 minutes 7.Dispense 3ul per well of Anti-ADP Cryptate / ADP-d2 mix (prepared as instructed by Cisbio) 8.Incubate at ambient for 30 minutes 9.Read using EnVision
(Quantitative high-throughput screening tests each substance at several concentrations.)
`CCOC(=O)N1CCC(Nc2cccc(C)c2)CC1`: the activity, negative = inhibition is inactive: -1.75%.
With `COc1cc(C(=O)NCC2(N(C)C)CCCCC2)ccc1OC(F)F` the figure was inactive: -0.271%; with `Cc1ccc(OCC(C)C)c(CN(CCCl)CCCl)c1`, inactive: 0.191%.
With `CCCCOc1ccc(C(=O)NCC2(N3CCOCC3)CCCCC2)cc1` the figure was inactive: 0.173%; with `O=C(NCC1(N2CCCCC2)CCCCC1)c1ccc(F)cc1`, inactive: -1.24%; with `CCOC(=O)N1CCC(Nc2ccc(F)cc2)CC1`, inactive: -10.8%.
With `COc1ccc(NC2CCN(CCc3ccccc3)CC2)c(OC)c1` the figure was inactive: 0.217%; with `CCOc1ccc(C)cc1CN(CCCl)CCCl`, inactive: 0.0141%; with `O=C(NCC1(N2CCCCC2)CCCCC1)c1ccc(Cl)s1`, inactive: 0.0838%.
Turning to `N#CC1(Nc2ccccc2)CCN(Cc2ccccc2)CC1`, the activity, negative = inhibition was inactive: 2.08%.
`O=C(OC1CN2CCC1CC2)C1c2ccccc2Oc2ccccc21` (stereo not drawn): the activity, negative = inhibition was inactive: 2.72%.
With `COc1ccc(Cl)cc1C(=O)NCC1(N2CCOCC2)CCCCC1`, the activity, negative = inhibition was inactive: 1.74%.
The value for `CCOC(=O)N1CCC(Nc2ccc(OC)cc2)CC1` was inactive: -2.59%; that for `O=C(NCC1(N2CCCCC2)CCCCC1)c1ccc(Cl)nc1` was inactive: 3.7%; that for `Cc1cc(C)cc(N(C(=O)c2ccccc2)C2CCN(C(=O)OC(C)(C)C)CC2)c1` was inactive: 3.02%.
The value for `O=C(NCC1(N2CCOCC2)CCCCC1)c1cc2ccccc2o1` was inactive: -1.93%.
The value for `CSc1ccccc1C(=O)NCC1(N2CCCCC2)CCCCC1` was inactive: -0.776%.
With `COc1ccc(C(=O)NCC2(N3CCCCC3)CCCCC2)cc1`, the activity, negative = inhibition was inactive: -1.06%.
Consider `CC(C)(C)OC(=O)N1CCC(N(C(=O)c2ccccc2)c2ccc(F)cc2)CC1`, for which the activity, negative = inhibition was inactive: 0.884%.
With `COc1ccc(C(=O)NCC2(N3CCCCC3)CCCCC2)c(OC)c1OC` the figure was inactive: 0.342%; with `O=C(NCC1(N2CCCCC2)CCCCC1)c1ccc(=O)[nH]c1`, inactive: 0.946%.
With `O=C(NCC1(N2CCCCC2)CCCCC1)c1cccs1` the figure was inactive: -1.14%; with `CCCOc1ccc(C(=O)NCC2(N(C)C)CCCCC2)cc1OC`, inactive: 1.28%.
With `O=C(OC1CN2CCC1CC2)c1ccc([N+](=O)[O-])cc1` (stereo not drawn) the figure was inactive: 0.231%; with `O=C(NCC1(N2CCCCC2)CCCCC1)c1cncc(Br)c1`, inactive: -0.862%.
With `COc1cc(OC)c(C(=O)NCC2(N(C)C)CCCCC2)cc1OC`, the activity, negative = inhibition is inactive: -0.169%.
For `O=C(NCC1(N2CCOCC2)CCCCC1)c1cc(F)c(F)cc1Cl`, the activity, negative = inhibition is inactive: -1%.
The value for `CC(C)c1ccc(NC2CCN(C(=O)OC(C)(C)C)CC2)cc1` was inactive: 0.271%; that for `COc1ccc(CN(CCCl)CCCl)cc1Cl` was inactive: 2.7%; that for `CN(C)c1cccc(C(=O)NCC2(N3CCCCC3)CCCCC2)c1` was inactive: 1.25%.
With `O=[N+]([O-])c1cc([N+](=O)[O-])c(OC2CCCCC2O)c([N+](=O)[O-])c1` (stereo not drawn) the figure was inactive: -2.64%; with `O=C(NCC1(N2CCOCC2)CCCCC1)c1cc(=O)[nH]c2ccccc12`, inactive: -5.17%; with `COc1cc(C(=O)NCC2(N3CCCCC3)CCCCC2)ccc1OC(F)F`, inactive: -0.0781%.
`CC(C)c1ccc(C(=O)NCC2(N3CCOCC3)CCCCC2)cc1`: the activity, negative = inhibition is inactive: 1.43%.
With `COc1ccc(NC2CCN(C(=O)OC(C)(C)C)CC2)cc1` the figure was inactive: -0.771%.
With `CN1CCN(CCOC(=O)C(O)(c2ccccc2)c2ccccc2)CC1` the figure was inactive: -1.21%; with `O=[N+]([O-])c1cc([N+](=O)[O-])c(NCC2CCS(=O)(=O)C2)c([N+](=O)[O-])c1` (stereo not drawn), inactive: 0.881%.
The value for `O=C(NCC1(N2CCCCC2)CCCCC1)c1cccc(C(F)(F)F)c1` was inactive: -1.41%; that for `CCN1CCC(Nc2ccc(Cl)cc2)CC1` was inactive: 0.712%; that for `N#CC1(Nc2ccccc2)CCN(CCc2ccccc2)CC1` was inactive: 0.934%.
Consider `O=C(NCC1(N2CCCCC2)CCCCC1)c1cccc([N+](=O)[O-])c1`, for which the activity, negative = inhibition is inactive: -1.88%.
With `CSc1ccc(C(=O)NCC2(N3CCOCC3)CCCCC2)cc1` the figure was inactive: -0.36%; with `O=C(NCC1(N2CCCCC2)CCCCC1)c1ccc(OC(F)F)cc1`, inactive: 0.0103%.
The value for `CN(C)C1(CNC(=O)c2cccc(C#N)c2)CCCCC1` was inactive: 0.898%; that for `c1ccc(CN2CCC(Nc3ccccc3)CC2)cc1` was inactive: -0.326%.
With `CCCN1CCC(Nc2cc(OC)cc(OC)c2)CC1` the figure was inactive: 0.645%.
`CCOC(=O)C(CC)C1=NC(C)(C)Cc2ccccc21.O=[N+]([O-])c1cc([N+](=O)[O-])c(O)c([N+](=O)[O-])c1` (stereo not drawn): the activity, negative = inhibition was inactive: 1.6%.
With `N#Cc1ccc(C(=O)NCC2(N3CCCCC3)CCCCC2)cc1` the figure was inactive: -1.98%; with `CC(C)(C)OC(=O)N1CCC(N(C(=O)c2ccccc2)c2ccc(Cl)cc2)CC1`, inactive: -0.17%.
With `CCc1cc(C(=O)NCC2(N3CCCCC3)CCCCC2)sc1C` the figure was inactive: -0.498%.
The value for `O=C(OC1CN2CCC1CC2)C1c2ccccc2C=Cc2ccccc21` (stereo not drawn) was inactive: 2.14%; that for `O=C(O)c1cccc(Nc2c([N+](=O)[O-])cc([N+](=O)[O-])cc2[N+](=O)[O-])c1` was inactive: 0.883%; that for `CCOC(=O)N1CCC(Nc2ccc(C)cc2)CC1` was inactive: 0.0546%.
On to `N/C(=N\O)c1c(N)no[n+]1[O-]`, for which the activity, negative = inhibition was inactive: 1.02%.
With `COc1ccc(C(=O)NCC2(N3CCOCC3)CCCCC2)cc1OC` the figure was inactive: -1.51%.
The value for `COc1cc(C(=O)NCC2(N3CCOCC3)CCCCC2)cc(OC)c1C` was inactive: 1.56%.
With `O=C(NCC1(N2CCOCC2)CCCCC1)c1cc(Br)ccc1Cl`, the activity, negative = inhibition was inactive: 0.97%.
The value for `CN1CCC(Nc2ccc(Cl)cc2)CC1` was inactive: 0.503%.
The value for `CCCOc1ccc(C)cc1CN(CCCl)CCCl` was inactive: -0.569%; that for `COc1cccc(C(=O)N(c2cc(C)cc(C)c2)C2CCN(C(=O)OC(C)(C)C)CC2)c1` was inactive: 1.3%; that for `COc1cc(OC)cc(C(=O)NCC2(N3CCOCC3)CCCCC2)c1` was inactive: -0.0752%.
Regarding `CCC(CO)(C(=O)OC1CN2CCC1CC2)c1ccccc1` (stereo not drawn), the activity, negative = inhibition is inactive: -1.1%.
The value for `CC(C)(C)OC(=O)N1CCC(Nc2ccccc2)CC1` was inactive: -5.26%; that for `O=C(O)C1(Nc2ccccc2)CCN(Cc2ccccc2)CC1` was inactive: -0.947%.
With `CCCOc1ccc(C(=O)NCC2(N(C)C)CCCCC2)cc1` the figure was inactive: -0.163%.
With `CCOc1ncccc1C(=O)NCC1(N2CCOCC2)CCCCC1` the figure was inactive: 1.17%.
Consider `CN1CCC(Nc2ccc(F)c(Cl)c2)CC1`, for which the activity, negative = inhibition is inactive: 0.607%.
On to `O=C(NCC1(N2CCCCC2)CCCCC1)c1ccco1`, for which the activity, negative = inhibition is inactive: -7.88%.
With `CN(C)c1ccc(C(=O)NCC2(N3CCCCC3)CCCCC2)cc1`, the activity, negative = inhibition was inactive: -5.09%.
The value for `CCN1CCC(Nc2cccc(F)c2)CC1` was inactive: -2.02%; that for `Cc1ccc(C(=O)NCC2(N3CCCCC3)CCCCC2)o1` was inactive: -1.22%; that for `Fc1ccccc1NC1CCN(Cc2ccccc2)CC1` was inactive: 1.58%.
With `COc1cc(OC)cc(C(=O)NCC2(N3CCCCC3)CCCCC2)c1`, the activity, negative = inhibition was inactive: -0.286%.
